This passage reports Kd, koff and kon results from patent US20220175921A1 (Bristol-Myers Squibb, published 2022).

The target of experiment [1] is T1, recombinant human GITR/Fc (rHGITR/Fc, R&D systems CAT #689-GR) (human, UniProt Q9Y5U5 26-161, limits assumed).
T1 construct: Bought; also called soluble GITR
T1 chain: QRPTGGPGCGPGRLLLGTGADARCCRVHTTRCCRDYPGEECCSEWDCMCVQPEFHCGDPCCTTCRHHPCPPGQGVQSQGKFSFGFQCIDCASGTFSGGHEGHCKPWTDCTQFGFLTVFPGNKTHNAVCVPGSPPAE
Kind of experiment: SPR; mAb captured (anti-CH1), rHGITR/Fc analyte. Here is the method: Binding of anti-GITR antibodies to soluble GITR was determined by Biacore. […] The capture concentration of the mAb/volume was 2-40 μg/mL (5 μL at 10 μL/min). The antigen association time was 5 minutes at 15 μL/min, the antigen dissociation time was 6 minutes, and regeneration was performed with 50 mM HCl/50 mM NaOH (12 μL each at 100 μL/min).
For orientation: Surface plasmon resonance follows binding to a sensor surface in real time, without labels.

Experiment [2] addresses T2, human GITR, membrane bound (on activated human T cells or on 3A9-hGITR cells) (human, UniProt Q9Y5U5 26-241).
T2 construct: also called huGITR; TNFRSF18
T2 sequence: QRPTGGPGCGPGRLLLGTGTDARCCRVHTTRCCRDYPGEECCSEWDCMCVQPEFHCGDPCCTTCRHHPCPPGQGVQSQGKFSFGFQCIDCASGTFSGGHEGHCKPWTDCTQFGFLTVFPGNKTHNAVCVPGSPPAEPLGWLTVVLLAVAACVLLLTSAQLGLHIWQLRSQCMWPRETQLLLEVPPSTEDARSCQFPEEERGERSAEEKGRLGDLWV
Description: Scatchard; 125I-labelled mAb on 3 day stimulated human CD4+ T cells.

For experiment [3], the target named is T2, human GITR, membrane bound (on …). Description: Scatchard; 125I-labelled mAb on 4 day stimulated human CD4+ T cells.
The target is the same in experiment [4]. Kind of experiment: Scatchard; 125I-labelled mAb on 3A9-huGITR cells.

Broadly, the Kd is the free concentration of one partner at which half of the binding sites on the other are occupied at equilibrium, for simple one-to-one binding. The koff is a measure of how fast the partners let go of each other. A word on the kon: it is the rate constant with which the complex forms.

B1: 28F3-N297A (antibody)
heavy: QVQLVESGGGVVQPGRSLRLSCAASGFTFSSYGMHWVRQAPGKGLEWVAVIWYEGSNKYYADSVKGRFTISRDNSKNTLYLQMNSLRAEDTAVYYCARGGSMVRGDYYYGMDVWGQGTTVTVSSASTKGPSVFPLAPSSKSTSGGTAALGCLVKDYFPEPVTVSWNSGALTSGVHTFPAVLQSSGLYSLSSVVTVPSSSLGTQTYICNVNHKPSNTKVDKRV[human IgG1 Fc with changes not given here]
light: AIQLTQSPSSLSASVGDRVTITCRASQGISSALAWYQQKPGKAPKLLIYDASSLESGVPSRFSGSGSGTDFTLTISSLQPEDFATYYCQQFNSYPYTFGQGTKLEIKRTVAAPSVFIFPPSDEQLKSGTASVVCLLNNFYPREAKVQWKVDNALQSGNSQESVTEQDSKDSTYSLSSTLTLSKADYEKHKVYACEVTHQGLSSPVTKSFNRGEC
notes: 28F3 variable regions, IgG1 constant region having an N297A mutation
Consider B1, for which, in experiment [1], the dissociation constant Kd was 42.6 nM, the off-rate (koff) is 0.00336 s⁻¹ and the on-rate constant (kon) was determined as 78800 M⁻¹ s⁻¹.

B2: 28F3.IgG1.1 (antibody)
heavy: QVQLVESGGGVVQPGRSLRLSCAASGFTFSSYGMHWVRQAPGKGLEWVAVIWYEGSNKYYADSVKGRFTISRDNSKNTLYLQMNSLRAEDTAVYYCARGGSMVRGDYYYGMDVWGQGTTVTVSSASTKGPSVFPLAPSSKSTSGGTAALGCLVKDYFPEPVTVSWNSGALTSGVHTFPAVLQSSGLYSLSSVVTVPSSSLGTQTYICNVNHKPSNTKVDKRVEPKSCDKTHTCPPCPAPEAEGAPSVFLFPPKPKDTLMISRTPEVTCVVVDVSHEDPEVKFNWYVDGVEVHNAKTKPREEQYNSTYRVVSVLTVLHQDWLNGKEYKCKVSNKALPSSIEKTISKAKGQPREPQVYTLPPSREEMTKNQVSLTCLVKGFYPSDIAVEWESNGQPENNYKTTPPVLDSDGSFFLYSKLTVDKSRWQQGNVFSCSVMHEALHNHYTQKSLSLSPG
light: AIQLTQSPSSLSASVGDRVTITCRASQGISSALAWYQQKPGKAPKLLIYDASSLESGVPSRFSGSGSGTDFTLTISSLQPEDFATYYCQQFNSYPYTFGQGTKLEIKRTVAAPSVFIFPPSDEQLKSGTASVVCLLNNFYPREAKVQWKVDNALQSGNSQESVTEQDSKDSTYSLSSTLTLSKADYEKHKVYACEVTHQGLSSPVTKSFNRGEC
notes: 28F3 variable regions with effectorless IgG1.1f constant region; also called 28F3.IgG1.1f; 28.IgG1.1
As for B2, the Kd came to 0.7 nM in experiment [2], 0.87 nM in experiment [3], 39.3 nM in experiment [1] and 0.5 nM in experiment [4]. Also, the koff in experiment [1] is 0.00358 s⁻¹. Also, in experiment [1], the on-rate constant (kon) came to 90900 M⁻¹ s⁻¹.
